In patent US20240228542A1, “LYTIC DOMAIN FUSION CONSTRUCTS, CHECKPOINT INHIBITORS, AND METHODS OF MAKING AND USING SAME” (A28 Therapeutics Inc., priority 2020, published 2024):

Key:
EMT-6 = assay: Cytotoxicity in EMT-6 murine breast cancer cells (CellTiter Glo); type: cell-based
Experimental: Exponentially growing murine cancer cell lines (EMT-6; a triple negative murine breast cancer cell line, passage 5) were obtained from Charles River, Wilmington MA and propagated from a frozen stock in Eagle's Minimum Essential Medium (EMEM) supplemented with 10% fetal bovine serum and 2 mM glutamine. 100 units/mL penicillin G sodium, 100 μg/mL streptomycin sulfate. 0.1 mM non-essential amino acids, and 25 μg/mL gentamicin. Cell cultures were maintained in tissue culture flasks in a humidified incubator at 37° C., in an atmosphere of 5% CO2 and 95% air. The cells were released using cell dissociation buffer and were seeded at a density of 2,000 cells/well into opaque 96 well plates and incubated in complete culture media for 24 hours.
Treatment was initiated by adding Phor18-LHRH (APC 338613, Lot #W01107C1) or
unconjugated Phor18 (APC 338983, SY09076C) at concentrations of 0.02, 0.06, 0.2, 0.6, 1.85, 5.5, 16.6, 50 and 100 μm in quadruplicates on two different plates (N=8). Controls were treated with USP saline or 0.1% TritonX-100™ as reference for 0 and 100% cell death, respectively. Cell viability was measured after 4 and 8 h of incubation in a cell viability assay (Promega, CellTiter Glo™, Promega # G7572, lot #326282). The in vitro toxicities as ICso values were determined using the GraphPad Prism version 5.00 for Windows, GraphPad Software, San Diego California USA.

[1] = test system: murine ovarian cancer cells; assay: EP-100 cytotoxicity and LHRH-R specificity in murine ovarian cancer cells; type: cell-based; conditions: ID8 and IG10 cells, FIGS. 15D and 15E
Text: To identify the direct effects of EP-100 on cancer cells, murine ovarian cancer cell lines were used for in vitro experiments. […] The level of expression of LHRH-R in murine ovarian cancer cells using RT-PCR and Western blot analysis. […] Indeed, LHRH-R was expressed mainly on the membrane of cancer cells (FIGS. 14D and 14E). Human SKOV3ipl ovarian cancer cells and immortalized murine 3T3 fibroblasts were used as negative controls.
To determine whether the antitumor EP-100 efficacy was specific to LHRH-R expression, we silenced LHRH-R using siRNA (FIG. 15A). […].

human RBC = assay: Acute hemolytic activity on human red blood cells; type: cell-based; conditions: for HA50 (hemolytic activity): 0.5% human RBC, 2 h
Experimental: Hemolytic activity was determined in 96 well plates using a serial dilution of peptides exposed to 0.5% human RBC. Controls were saline (no RBC death) or 0.1% Triton X 100 (100% RBC lysis). The peptide concentrations ranged from 0 to 100 μm. Incubations were conducted for 2 h.

MDA-MB-435S xenograft = assay: MDA-MB-435S xenograft, multiple dose regimen; type: in vivo, Nu/Nu mice; conditions: entire study period
Experimental: In order to determine the minimal effective dose necessary to reduce MDA-MB-435S xenograft weights in a multiple dose regimen, Nu/Nu female mice, outbred strain, age 8 weeks (Charles River), were injected (s.c.) into the interscapular region with a MDA-MB-435S (passage # 253)/Matrigel suspension (2×10^6 cells/mouse) as previously described above. Phor 18-LHRH (338613) (ID: 338613 lot #P080401) (0.002, and 0.2 mg/kg) were reconstituted in USP saline prior to dosing. The doses were given as a single bolus intravenous injection via lateral tail vein on days 15, 16, 17, 20, 21, 22, 23, 27, 28, 29, 30, 33, 34, 35, 36, 37, 38, 40, 41, 42 after tumor cell inoculation. Saline injections served as control groups.
Each treatment group consisted of 16 mice. During the entire study tumor volumes were recorded twice weekly. Final necropsy was conducted on day 45 after tumor cell injection. […] due to occlusion of the tail vein in most mice. At study endpoint body weight, tumor weights were determined and fixed in phosphate buffered 10% formalin.

OVCAR-3 xenograft = assay: OVCAR-3 ovarian cancer xenograft; type: in vivo, Nu/Nu mice; conditions: 2 mg/kg dose; procedural and not related to treatment
Experimental: The purpose of this xenograft study was to test Phor 18-LHRH (338613) in a ovarian cancer model, to determine if Phor18-LHRH (338613) is effective in vivo in multi-drug resistant, slow growing tumor models as single weekly injections. In brief, Nu/Nu female mice, inbred strain, age 5 weeks (Harlan-Sprague Dawley) were injected subcutaneously with a NIH:OVCAR-3 cells/Matrigel suspension (4.6×10^6 cells/mouse). Treatment was started on day 33 after tumor cell injection when the tumors were established and continued on days 41 and 47. […]
A group of 9 tumor bearing mice was sacrificed on day 33 and served as baseline group. […] Tumor volumes and bodyweights were recorded twice weekly during the study, as well as overall veterinarian examination of mice was conducted.
Primary tumors, liver, kidney, pancreas, heart, lung, and spleen were collected, fixed in formalin and prepared for histological evaluation. Tumor weights were measured at necropsy, part of the tumors were frozen at −80° C. for LH/CG and LHRH receptor assay determination.
As a biomarker for drug activity, CA 125 was determined in serum, collected from each individual mouse at necropsy using a Enzyme Linked Immunoassay for quantitative determination of ovarian cancer antigen CA125 (Assay kit Genway, Biotech, Inc. San Diego, CA, Catalog #40-052-115009, #BC-1013 according to the manufacturer). […]

[2] = test system: MDA-MB-435S.luc xenograft; assay: MDA-MB-435S.luc xenograft, LHRH fusion constructs; design: species or system Nu/Nu mice; conditions: mouse, in vivo
Experimental: For LHRH fusion constructs, the mouse xenograft model for breast cancer was used. In brief. Nu/Nu female mice, outbred strain, age 5 weeks (Charles River) were injected subcutaneously with a MDA-MB-435S.luc/Matrigel suspension (1×10^6 cells). Treatment was started on day 21 after tumor cell injection and continued on day 26 and 29. The doses for weekly fusion construct injections were 2, 0.2 and 0.02 mg/kg body weight, given as a bolus single injection. All mice were necropsied 34 days after tumor cell injection-baseline values for tumor weights were obtained by sacrificing 8 mice at treatment start. […] Tumor weights were recorded at necropsy, part of the tumors were frozen at −80 ° C. for luciferase assay determination.
Characteristics of tumors at necropsy are summarized in FIG. 10; (A) tumor weight, (B) changes of tumor weights compared to baseline, (C) total number of live tumor cells, (D) changes of total live tumor cells compared to baseline, and (E) bodyweights at baseline and necropsy. Viability of tumor cells was determined at the end of the study when tumors were measured for luciferase activity. Treatment efficacy was calculated as difference between measurements at the beginning of treatment compared to the measurement at the end of study (FIG. 10B and 10D).

[3] = Maximum tolerated dose (MTD) and safety margin; type: in vivo; conditions: MTD in comparison with anti-tumor effective dose
Experimental: The fusion conjugates have a high safety margin considering parameters such as hemolytic activity, maximum tolerated dose (MTD) (up to 16-25 mg/kg) in comparison with the anti-tumor effective dose (0.02 or 0.01 mg/kg). The safety margin for Phor21-βCG-ala is 16 whereas a value of 800 can be reached for Phor18-βCG-ala and Phor 18-LHRH. In comparison the safety margin for Phor 18-Lupron is only 8.

Row | Sequence | IC50 (cytotoxicity) (EMT-6; EMT-6, 4 h) | IC50 (EMT-6; EMT-6, 8 h) [µM] | cytotoxic effect [1] | HA50 (hemolytic activity) (human RBC) | HA50 (hemolytic activity) (human RBC; listed as 338983) | IC50 (EMT-6; EMT-6, 4 h) [µM] | HA50 (hemolytic activity) (human RBC; listed as 338613) [µM] | Hemolytic Activity [μM] (HA50) (human RBC; Table 4 summary) [µM] | bodyweights (MDA-MB-435S xenograft) | death on injection (OVCAR-3 xenograft) | elevated potassium levels compared to saline controls [2] [fold] | safety margin [3]
1 | KFAKFAKKFAKFAKKFAK [Phor18, reference compound] | Not toxic | 55.8 ± 1.6 | did not have cytotoxic effects | did not show any hemolytic activity | Not lytic |  |  |  |  |  |  | 
2 | KFAKFAKKFAKFAKKFAKQHWSYGLRPG [Phor18-LHRH] |  | 5.7 ± 0.1 |  |  |  | 5.8 ± 0.2 | 297.9 ± 35 | 297 | not affected by treatment | One mouse died during the first injection | 1.5 | 800
